Test results reported in PMC3669024, “Pharmacological Characterization of a 5-HT1-Type Serotonin Receptor in the Red Flour Beetle, Tribolium castaneum” (PLoS ONE, 2013).
Counter-ions that a name gives are not always drawn.

Chains of the proteins cited; added tags and fusions are not shown.
UniProt R9ULB8, entry or part of it: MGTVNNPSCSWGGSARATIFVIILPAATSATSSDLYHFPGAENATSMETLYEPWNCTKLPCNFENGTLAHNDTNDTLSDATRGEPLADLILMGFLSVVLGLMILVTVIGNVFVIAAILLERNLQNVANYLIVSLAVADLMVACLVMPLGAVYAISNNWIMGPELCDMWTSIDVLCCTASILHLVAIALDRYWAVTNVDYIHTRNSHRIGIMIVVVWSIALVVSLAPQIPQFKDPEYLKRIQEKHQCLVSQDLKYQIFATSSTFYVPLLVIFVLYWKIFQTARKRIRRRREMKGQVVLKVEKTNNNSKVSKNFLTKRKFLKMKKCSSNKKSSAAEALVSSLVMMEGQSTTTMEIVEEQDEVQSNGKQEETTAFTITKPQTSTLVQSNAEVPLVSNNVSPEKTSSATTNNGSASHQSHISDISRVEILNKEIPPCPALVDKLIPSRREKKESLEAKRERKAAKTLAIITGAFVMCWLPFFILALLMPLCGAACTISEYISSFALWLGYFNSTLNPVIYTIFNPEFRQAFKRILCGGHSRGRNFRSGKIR

Target: Trica5-HT1 (Tribolium castaneum, UniProt R9ULB8)
Experiment: Aequorin-luminescence assay, antagonist inhibition of 5-HT mediated activation of Trica5-HT1 in CHO-WTA11 cells
Assay type: cell-based
Procedure: General binding studies were performed in Chinese hamster ovary (CHO) WTA11 cells stably coexpressing apoaequorin and the promiscuous Gα16. This allowed us to measure the pharmacology independent of the downstream signaling. CHO-PAM28 cells stably expressing apoaequorin, but not the promiscuous Gα16, and human embryonic kidney cells (HEK) 293 cells were used to measure downstream signaling via Ca^2+ and cAMP, respectively. CHO cell lines were provided by Prof. Marc Parmentier (University of Brussels, Belgium) and Dr. Michel Detheux (Euroscreen S.A., Belgium). HEK293 cells were a gift from Prof. Arnd Baumann (Research Centre Jülich, Germany.
Cells were cultured in vitro as monolayers at 37°C, 5% CO2 and high relative humidity, and subcultivated twice a week. […] HEK293 cells were cotransfected with receptor construct (4 µg) and CRE-luciferase construct (2 µg), consisting of the open reading frame of the reporter gene, luciferase, downstream of a multimerized cAMP-response-element (CRE6x), [39]. […]
The transfected CHO cells were detached with phosphate buffered saline (PBS) containing 0.2% EDTA and collected in DMEM/F-12 (without phenol red, with L-glutamine and 10 mM HEPES) (Gibco). The amount of viable cells was determined using the NucleoCounter NC-100+TM (Chemometic). […] Receptor activity was measured as the light emission after adding 50 µl of the cell suspension. […]

CN1CCN2c3ccccc3Cc3ccccc3C2C1 (centres unmarked) [mianserin, mianserin hydrochloride]
agonistic effects at high concentration (100 µM, with 5-HT 100 nM): some agonistic effects
inhibition of 5-HT induced responses (words) (5-HT 100 nM, antagonist 10 nM to 1 mM): no detectable inhibition
